# Laboratory results reported in paper PMC9924264 (Journal of Medicinal Chemistry, 2023).
# Protein sequences, listed by entry. Tags and fused reporters are not part of them. Residues count along the entry.
# UniProt P37023, 22-503: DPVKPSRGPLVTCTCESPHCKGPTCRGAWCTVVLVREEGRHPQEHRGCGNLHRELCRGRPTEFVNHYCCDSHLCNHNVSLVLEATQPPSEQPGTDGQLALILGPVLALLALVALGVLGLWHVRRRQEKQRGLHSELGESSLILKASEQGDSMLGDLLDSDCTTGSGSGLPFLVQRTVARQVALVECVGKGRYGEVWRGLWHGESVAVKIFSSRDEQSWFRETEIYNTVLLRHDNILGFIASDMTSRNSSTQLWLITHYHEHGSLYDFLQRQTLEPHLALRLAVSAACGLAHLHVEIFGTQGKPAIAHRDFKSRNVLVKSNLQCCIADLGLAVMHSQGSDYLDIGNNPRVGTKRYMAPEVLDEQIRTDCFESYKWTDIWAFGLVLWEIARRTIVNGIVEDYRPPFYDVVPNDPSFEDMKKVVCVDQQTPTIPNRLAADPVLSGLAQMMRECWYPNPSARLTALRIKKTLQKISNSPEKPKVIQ
# Columns and labels:
# ACVR1 (ALK2) = biological target: T1, ACVR1 (ALK2) (Homo sapiens, UniProt Q04771); experiment: ThermoFisher SelectScreen LanthaScreen assay; assay type: binding
# T1 sequence (Q04771 21-509): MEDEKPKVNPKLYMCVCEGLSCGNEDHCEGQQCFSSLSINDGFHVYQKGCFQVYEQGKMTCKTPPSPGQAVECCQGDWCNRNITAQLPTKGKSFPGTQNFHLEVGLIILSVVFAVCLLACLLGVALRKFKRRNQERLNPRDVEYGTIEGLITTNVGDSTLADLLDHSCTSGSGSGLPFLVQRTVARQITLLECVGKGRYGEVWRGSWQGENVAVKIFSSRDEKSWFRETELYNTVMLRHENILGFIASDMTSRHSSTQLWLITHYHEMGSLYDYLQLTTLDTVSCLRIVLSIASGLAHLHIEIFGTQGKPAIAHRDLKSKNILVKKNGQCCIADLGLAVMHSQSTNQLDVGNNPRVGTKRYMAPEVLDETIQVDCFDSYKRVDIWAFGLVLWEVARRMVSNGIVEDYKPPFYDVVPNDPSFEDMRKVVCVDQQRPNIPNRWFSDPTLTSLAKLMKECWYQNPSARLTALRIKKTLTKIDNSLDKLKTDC
# ACVRL1 (ALK1) = ACVRL1 (ALK1) (Homo sapiens, UniProt P37023); experiment: ThermoFisher SelectScreen LanthaScreen assay; assay type: binding; conditions: for selectivity over BMPR2: ALK1, text; for selectivity: ALK1 vs BMPR2
# [1] = Metabolic stability in mouse liver microsomes; assay type: in vitro ADME; conditions: compared with analogue (CDD-1115 for CDD-1281, CDD-1431 for CDD-1653)
# [2] = Metabolic stability in human liver microsomes; assay type: in vitro ADME; conditions: compared with analogue (CDD-1115 for CDD-1281, CDD-1431 for CDD-1653)
# Summary of the method: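 Human liver microsomes (0.5 mg protein/mL) incubated at 37 °C with test compound (2.0 μM) and NADPH cofactor (1.0 mM). Samples taken at 0, 30 and 60 min, in duplicate. […] Half-life was compared with that of the paired structural analogue.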
# BMPR2 kinase domain = biological target: T2, BMPR2 kinase domain (Homo sapiens, UniProt Q13873); experiment: BMPR2 Kinase-Glo kinase inhibition assay; assay type: biochemical; conditions: compared to parent CDD-1431
# T2 sequence (Q13873 188-517): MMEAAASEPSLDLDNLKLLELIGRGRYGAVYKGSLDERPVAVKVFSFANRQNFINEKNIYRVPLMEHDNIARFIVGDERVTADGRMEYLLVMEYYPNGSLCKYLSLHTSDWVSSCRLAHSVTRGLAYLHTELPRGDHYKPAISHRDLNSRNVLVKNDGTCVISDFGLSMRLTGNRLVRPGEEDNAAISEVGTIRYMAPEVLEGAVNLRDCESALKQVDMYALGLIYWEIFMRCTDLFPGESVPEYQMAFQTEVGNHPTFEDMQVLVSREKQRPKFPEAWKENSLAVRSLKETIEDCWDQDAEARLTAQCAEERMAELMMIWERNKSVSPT
# Summary of the method: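 Recombinant human BMPR2 kinase domain (aa188-517, C-terminal His-tag) expressed in E. coli and purified by affinity, anion-exchange and size-exclusion chromatography. Substrate-free ATPase end-point assay: 10 μM ATP, 0.02% Tween-20, kinase buffer, 30 min at 30 °C. Enzyme level optimized for linear initial velocity. Leftover ATP read by luciferase luminescence, with no-kinase controls. Kiapp from modified Morrison equation fit to normalized fractional activity, no inhibition mode assumed.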
"selectivity over BMPR2 (ACVR1 (ALK2); ALK2, text) [fold]",selectivity (ACVR1 (ALK2); ALK2 vs BMPR2) [×],SMILES,selectivity over BMPR2 (ACVRL1 (ALK1)) [fold],selectivity (ACVRL1 (ALK1)) [×],fold increase of half-life in MLM [1] [fold],fold increase of half-life in HLM [2] [fold],fold improved BMPR2 potency (BMPR2 kinase domain) [fold]
> 625,>625,"CNC(=O)CCc1ccc(C(=O)NCc2cccc(N3CCN(c4nc(Nc5cccc(S(N)(=O)=O)c5)ncc4OC)CC3)c2)cc1 [CDD-1431, N-(3-(4-(5-Methoxy-2-((3-sulfamoylphenyl)amino)pyrimidin-4-yl)piperazin-1-yl)benzyl)-4-(3-(methylamino)-3-oxopropyl)benzamide]",> 625,>625,,,
,,"COc1cnc(Nc2cccc(S(N)(=O)=O)c2)nc1N1CCN(c2ccccc2)C(=O)C1 [CDD-1653, 3-((5-Methoxy-4-(3-oxo-4-phenylpiperazin-1-yl)pyrimidin-2-yl)amino)benzenesulfonamide]",> 360,>360,5.7,13.8,2.9
